A549 tox – kills or reduces viability of A549 cells in Nrf2 counter-screen; A549 ARE-Fluc cells, CellTiter-Fluor viability, 18-24 h; actives 0.16% (n = 390,000); Potency, µM (doses to about 46 µM), for the others: at the highest dose activity change, negative = cytotoxicity, most hits filed as inhibitors; further: potency means the concentration at half of the fitted maximal effect; on the % scale 0 is the no-effect control and ±100 the full control effect
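Cytotoxicity counterscreen: CellTiter-Fluor fluorescence was measured in A549 ARE_Fluc cells after 18-24 h of compound exposure in a concentration series. The subsequent BugLite luminescent read reports ARE-luciferase activity.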
TCR activator – activates T cell receptor signaling; primary human leukocytes, anti-CD3, IL-2 HTRF, 48 h; Potency, µM (top dose mostly 9.22 µM), for the others: top-dose activation of IL-2 secretion, most hits filed as activators; 330,000 tested, under 10 active; further: % of control where 0% means no effect
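Human primary leukocytes + a-CD3 beads + cpd, 48 hr; IL-2 in supernatant by HTRF (ex 320nm / em 665nm). No co-stimulatory signal supplied.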
Nrf2 block – Nrf2 pathway inhibition; A549 ARE-Fluc reporter, luciferase luminescence, 18-24 h; Potency, µM (series often up to 46 µM), without a hit: at the top dose activity change, negative = inhibition, most hits filed as inhibitors; actives 2.1% (n = 360,000); further: potency means the concentration at half of the fitted maximal effect; on the % scale 0 is the no-effect control and ±100 the full control effect; nearly all actives have a fitted effect of over 60% in size
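Cells were seeded and rested 2 h, then exposed to compounds for 18-24 h. CellTiter-Fluor was read first as a viability measure. BugLite was added 15 min before the final luminescent read of ARE-luciferase activity in A549 cells.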
miR-21 FLuc – miR-21 reporter, rising signal | AID 2288 | HeLa miR-21 FLuc reporter, luciferase, 48 h | 340,000 tested, under 10 active | Potency, µM (titrated, usually from 38.3 µM), for the others: at the top dose reporter change, positive = more light; active = well fitted rising curve with a large enough effect; inconclusive = small, poorly fitted or top-dose-only effect; inactive = no such curve, though single readings can be large or run the other way;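 also: % of control where 0% means no effect; miR-21 action dims this reporter so a rising signal means less miR-21 action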
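Luminescence from a firefly luciferase reporter carrying a miR-21 binding site downstream, stably expressed under a CMV promoter in HeLa cells that make miR-21 endogenously, reports miRNA modulation after 48 h compound exposure up to approximately 40uM final.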
ClpP mod – qHTS Assay for Activators of ClpP | ATP-dependent Clp protease proteolytic subunit (Bacillus subtilis (strain 168)), P80244 | actives 1.9% (n = 340,000) | purified B. subtilis ClpP, FRET peptide cleavage, 20 min | Potency, µM (series often up to 57.5 µM), without a hit: at the highest dose activity change, negative = active; active means well fitted falling curve with a large enough effect; inconclusive means small, poorly fitted or top-dose-only effect; inactive means no such curve, though single readings can be large or run the other way; further: potency means the concentration at half of the fitted maximal effect; the source files actives as falling curves though it sought activators and does not explain the sign; nearly all actives have a fitted effect of over 65% in size
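ClpP 10 microg/mL final, pH 8 Tris/KCl buffer with BSA, glycerol, Tween-20; compound pinned in; FRET-FV substrate; RT 20 min; Ex320/Em430; ΔFRET vs ADEP 5.8 microM, DMSO, no enzyme.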
Nrf2 activator – Nrf2 pathway activation; AID 624171; AREc32 ARE-luciferase reporter (MCF7-derived line), luminescence, 24 h; Potency, µM (top dose mostly 46.1 µM), for inactives: top-dose activation, hits mostly activators; actives 0.31% (n = 410,000); further: potency means the concentration at half of the fitted maximal effect; % of control where 0% means no effect; nearly all actives have a fitted effect of over 65% in size
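Luciferase luminescence (Steady-Glo, 30 min at room temperature) served as the read-out of ARE activation in AREc32 cells treated with compounds for 24 hr at 37 deg C.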
Active calls of the source: *; ? = inconclusive; . = no result given; [ ] = remark or other dose. Hits are enriched below; roughly 3.7% of the tested compounds scored in any of these assays. Unless noted, the call rests on the fitted dose curve; in most records, active means well fitted curve in the direction sought with a large enough effect; inconclusive means small, poorly fitted or top-dose-only effect, or another doubt; inactive means no such curve, though single readings can be large; an effect the other way counts as inactive or inconclusive.

1: Cc1ccc(N(CC(=O)Nc2ccc(-c3nc4ccc(C)cc4s3)cc2)S(C)(=O)=O)cc1
2: O=C(CCN1C(=O)NC2(CCCC2)C1=O)Nc1ccc(-c2nc3ccccc3s2)cc1
3: O=C(CCN1C(=O)NC2(CCCC2)C1=O)Nc1ccc(Sc2ccc(Br)cc2)cc1
4: CCn1c(SCC(=O)Nc2ccc(-c3nc4ccc(C)cc4s3)cc2)nnc1-c1ccccc1
5: CCC1(c2ccc(F)cc2)NC(=O)N(CC(=O)Nc2ccc(-c3nc4ccc(C)cc4s3)cc2)C1=O (stereo unspecified)
6: O=[S+]([O-])(c1ccc2c(c1)OCCO2)N1CCN([S+](=O)([O-])c2ccccc2Br)CC1
7: O=C(O)CC(c1cccc(O)c1)N1Cc2ccccc2C1=O (stereo unspecified)
8: N#Cc1ccccc1COc1ccc(/C=C/C(=O)O)cc1
9: O=c1cc(CSc2nnc(-c3cccs3)n2Cc2ccccc2)nc2sc3ccccc3n12
10: Cc1cc(C(=O)CSc2nnc(-c3cccs3)n2Cc2ccccc2)c(C)n1C

entry no.	1	2	3	4	5	6	7	8	9	10
A549 tox	-1%	-6%	.	.	-22%	1%	5%	0%	-29%	-8%
TCR activator	5%	-28%	.	.	-9%[46.1 µM]	.	-1%	1%	-2%	-1%
Nrf2 block	?	12%	.	.	?	4%	5%	2.3µM*	26µM*	6%
miR-21 FLuc	-46%	.	.	-47%	-16%	.	-4%	25%	22%	0%
ClpP mod	11µM*	20µM*	0%	.	7.9µM*	.	0%	.	-2%	5%
Nrf2 activator	5%	-1%	6%	.	1%	.	-1%	-2%	0%	1%

Profiles, looked up by structure. Order of screens: A549 tox	TCR activator	Nrf2 block	miR-21 FLuc	ClpP mod	Nrf2 activator
Profile of O=C(CCN1C(=O)NC2(CCCC2)C1=O)Nc1ccc(Sc2ccc(Br)cc2)cc1 : .	.	.	.	0%	6%
Profile of O=C(CCN1C(=O)NC2(CCCC2)C1=O)Nc1ccc(-c2nc3ccccc3s2)cc1 : -6%	-28%	12%	.	20µM*	-1%
Profile of N#Cc1ccccc1COc1ccc(/C=C/C(=O)O)cc1 : 0%	1%	2.3µM*	25%	.	-2%

(list continues)
11: CCOP(=O)(Nc1cccc2oc(=O)c3ccccc3c12)OCC
12: Clc1cccc[n+]1CCCCCC[n+]1ccccc1Cl
13: Cc1ccc(NS(=O)(=O)c2ccc(Cl)c(C(=O)Nc3ccccc3-c3nc4ccccc4[nH]3)c2)cc1C
14: c1ccc(Cc2c(C3CCCCC3)nc3c4ccccc4ccn23)cc1
15: C=C1C(=O)C23C(O)C1CCC2C12CCCC(C)(COC(C)=O)C1C(O)C3(O)OC2 (stereo unspecified)
16: COc1ccc(N=C2NC(=O)/C(=C\C=C\c3ccco3)S2)cc1
17: Cc1ccccc1NC(=O)COC(=O)c1ccc(C)c(S(=O)(=O)N2CCCCC2)c1
18: CCCNC(=O)c1cnn2c(C(F)F)cc(-c3ccccc3)nc12
19: Cc1nc(N2CCOCC2)c(C#N)c2c1COC(C)(C)C2
20: CC1(C)Cc2c(C#N)c(N3CCOCC3)nc(-c3ccccc3)c2CO1

entry no.	11	12	13	14	15	16	17	18	19	20
A549 tox	12%	.	-27%	.	18µM*	-17%	.	?	1%	-4%
TCR activator	0%	.	3%[46.1 µM]	.	2%	4%	.	.	-6%[46.1 µM]	-3%[46.1 µM]
Nrf2 block	-14%	.	23µM*	.	9.2µM*	4%	.	23µM*	-6%	.
miR-21 FLuc	.	.	19%	.	.	-22%	.	0%	-9%	-12%
ClpP mod	11µM*	-3%	35µM*	?	4%	.	-5%	4%	32µM*	35µM*
Nrf2 activator	?	.	2%	10%	-4%	13µM*	3%	-1%	-1%	0%

21: Cc1ccc(S(=O)(=O)N2CCN(c3nc(C)c4c(c3C#N)CC(C)(C)OC4)CC2)cc1
22: CC(C)Cc1nc(N2CCN(C(=O)Cc3ccccc3)CC2)c(C#N)c2c1COC(C)(C)C2
23: CC(C)C(=O)N1CCN(c2nc(-c3ccccc3)c3c(c2C#N)CCCC3)CC1
24: CC(C)Cc1nc(N2CCN(C(=O)c3ccco3)CC2)c(C#N)c2c1CCCC2
25: COc1cccc(C2c3c(ncn(-c4ccc(NC(C)=O)cc4)c3=N)Oc3ccc4ccccc4c32)c1 (stereo unspecified)
26: COc1ccccc1-n1c(CNC(=O)c2ccco2)n[nH]c1=S

entry no.	21	22	23	24	25	26
A549 tox	1%	.	?	?	-6%	0%
TCR activator	8%	.	1%	-3%	.	10%
Nrf2 block	?	.	12µM*	?	6%	0%
miR-21 FLuc	-15%	-3%	4%	-4%	.	-2%
ClpP mod	28µM*	.	28µM*	5%	.	-1%
Nrf2 activator	-1%	.	3%	-1%	.	0%

Screens as filed in PubChem BioAssay.
